The values that follow come from ChEMBL document CHEMBL1138832, “N2-substituted O6-cyclohexylmethylguanine derivatives: potent inhibitors of cyclin-dependent kinases 1 and 2” (J Med Chem, 2004).

The target of the assay is Cyclin-dependent kinase 2/cyclin A (Homo sapiens, UniProt P24941). Put plainly: Inhibition of cyclin-dependent kinase 2-cyclin A3 (CDK2). It counts as protein-complex assay.

As for `Clc1cccc(Nc2nc(OCC3CCCCC3)c3[nH]cnc3n2)c1`, the midpoint of inhibition, the IC50, lay at 2300 nM.
